From patent US20100190150A1, “Biomarkers and methods for determining sensitivity to epidermal growth factor receptor modulators” (BRISTOL-MYERS SQUIBB COMPANY, priority 2004, published 2010)

What was measured:
[1] = system: Geo colon cancer xenograft; test: In vivo antitumor testing, colon cancer xenograft model; conditions: Geo sc xenograft in nude mice; 1 mg/mouse q3d X 10, 14, ip
Experimental: (§1) Tumors were propagated in nude mice as subcutaneous (sc) transplants using tumor fragments obtained from donor mice. Tumor passage occurred approximately every two to four weeks. Tumors were then allowed to grow to the pre-determined size window (usually between 100-200 mg, tumors outside the range were excluded) and animals were evenly distributed to various treatment and control groups. Animals were treated with C225 (1 mg/mouse q3d X 10, 14, ip). Treated animals were checked daily for treatment related toxicity/mortality. Each group of animals was weighed before the initiation of treatment (Wt1) and then again following the last treatment dose (Wt2). The difference in body weight (Wt2-Wt1) provided a measure of treatment-related toxicity. Tumor response was determined by measurement of tumors with a caliper twice a week, until the tumors reached a predetermined target size of 1 gm or became necrotic. […]
(§2) Antitumor activity was determined in terms of primary tumor growth inhibition. This was determined in two ways: (i) calculating the relative median tumor weight (MTW) of treated (T) and control (C) mice at various time points (effects were expressed as % T/C); and (ii) calculating the tumor growth delay (T-C value), defined as the difference in time (days) required for the treated tumors (T) to reach a predetermined target size compared to those of the control group (C). […]

[2] = system: HT29 colon cancer xenograft; test: as above; conditions: HT29 sc xenograft in nude mice; 1 mg/mouse q3d X 10, 14, ip
Experimental: as §1, §2

cetuximab was tested, and the “efficacy in colon cancer xenograft model (sensitive or resistant)” value [1] was “sensitive” and the “efficacy in colon cancer xenograft model (sensitive or resistant)” value [2] was “resistant”.
